This passage reports %max and Ke results from ChEMBL document CHEMBL3580663, “C7β-methyl analogues of the orvinols: the discovery of kappa opioid antagonists with nociceptin/orphanin FQ peptide (NOP) receptor partial agonism and low, or zero, efficacy at mu opioid receptors” (2015).

The chains behind the UniProt entries cited, without tags or fusion partners.
UniProt P33535, whole entry: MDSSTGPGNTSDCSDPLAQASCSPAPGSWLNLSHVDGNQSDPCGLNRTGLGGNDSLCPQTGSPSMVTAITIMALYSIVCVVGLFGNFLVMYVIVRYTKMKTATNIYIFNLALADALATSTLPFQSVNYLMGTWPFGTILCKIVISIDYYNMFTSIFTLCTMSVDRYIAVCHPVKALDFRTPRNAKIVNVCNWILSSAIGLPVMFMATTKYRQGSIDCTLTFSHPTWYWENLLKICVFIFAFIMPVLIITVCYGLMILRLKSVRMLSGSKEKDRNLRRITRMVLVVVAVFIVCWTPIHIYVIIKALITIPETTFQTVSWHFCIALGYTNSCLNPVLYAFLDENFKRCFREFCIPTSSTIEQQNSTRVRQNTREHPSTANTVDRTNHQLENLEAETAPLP
UniProt P41145, whole entry: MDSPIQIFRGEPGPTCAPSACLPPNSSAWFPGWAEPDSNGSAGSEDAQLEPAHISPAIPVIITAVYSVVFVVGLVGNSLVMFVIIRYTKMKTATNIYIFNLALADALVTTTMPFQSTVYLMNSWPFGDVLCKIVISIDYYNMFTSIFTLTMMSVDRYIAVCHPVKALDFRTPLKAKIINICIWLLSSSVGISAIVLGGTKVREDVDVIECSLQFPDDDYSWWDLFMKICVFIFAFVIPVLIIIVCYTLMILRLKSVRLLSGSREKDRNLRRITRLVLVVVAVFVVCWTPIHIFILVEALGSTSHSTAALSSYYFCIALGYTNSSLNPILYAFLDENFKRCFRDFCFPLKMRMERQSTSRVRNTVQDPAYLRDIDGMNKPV
UniProt P41146, whole entry: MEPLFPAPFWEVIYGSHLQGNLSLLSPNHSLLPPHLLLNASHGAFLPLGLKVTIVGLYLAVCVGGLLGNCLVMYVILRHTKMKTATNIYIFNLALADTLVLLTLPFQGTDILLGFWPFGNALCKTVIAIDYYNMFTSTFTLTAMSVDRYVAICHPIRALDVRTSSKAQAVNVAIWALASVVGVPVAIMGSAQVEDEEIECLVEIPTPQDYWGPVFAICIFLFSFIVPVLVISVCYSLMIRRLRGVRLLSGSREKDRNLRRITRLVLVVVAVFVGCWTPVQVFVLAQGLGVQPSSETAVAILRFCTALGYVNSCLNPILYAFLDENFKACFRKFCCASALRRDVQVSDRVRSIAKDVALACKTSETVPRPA
UniProt P33533, whole entry: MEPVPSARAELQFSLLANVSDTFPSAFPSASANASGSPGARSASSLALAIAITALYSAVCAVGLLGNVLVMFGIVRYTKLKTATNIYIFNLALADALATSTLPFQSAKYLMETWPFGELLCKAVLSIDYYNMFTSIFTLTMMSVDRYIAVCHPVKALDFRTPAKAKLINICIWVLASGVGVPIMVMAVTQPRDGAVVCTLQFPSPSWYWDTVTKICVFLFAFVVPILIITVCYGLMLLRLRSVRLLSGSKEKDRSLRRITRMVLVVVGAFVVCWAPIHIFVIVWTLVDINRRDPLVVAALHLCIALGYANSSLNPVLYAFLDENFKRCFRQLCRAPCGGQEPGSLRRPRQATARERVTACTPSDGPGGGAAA

For experiment [1], the target named is Mu-type opioid receptor (Rattus norvegicus) (UniProt P33535). Put plainly: Agonist activity at rat mu opioid receptor expressed in rat C6 cell membranes assessed as stimulation of [35S]GTPgammaS binding at 10 uM relative to DAMGO. (GTPγS is a poorly hydrolysed GTP analogue; its binding reports G protein activation.)
Experiment [2] addresses Kappa-type opioid receptor (Homo sapiens) (UniProt P41145). Put plainly: Agonist activity at human kappa opioid receptor expressed in CHO cell membranes assessed as stimulation of [35S]GTPgammaS binding at 10 uM relative to U69,593.
The target of experiment [3] is Nociceptin receptor (Homo sapiens) (UniProt P41146). Kind of experiment: Agonist activity at human NOP receptor expressed in HEK293 cell membranes assessed as stimulation of [35S]GTPgammaS binding at 10 uM relative to nociceptin.
Experiment [4] deals with Kappa-type opioid receptor (Homo sapiens) (UniProt P41145). Kind of experiment: Antagonist activity against human kappa opioid receptor expressed in CHO cell membranes assessed as inhibition of U69,593-induced [35S]GTPgammaS binding.
Experiment [5] has as its target Delta-type opioid receptor (Rattus norvegicus) (UniProt P33533). Put plainly: Agonist activity at rat delta opioid receptor expressed in rat C6 cell membranes assessed as stimulation of [35S]GTPgammaS binding at 10 uM relative to DPDPE.

In the case of `CO[C@]12CC[C@@]3(C[C@]1(C)[C@H](O)c1ccsc1)[C@H]1Cc4ccc(O)c5c4[C@@]3(CCN1CC1CC1)[C@H]2O5`, the %max in experiment [1] came to 10%; in experiment [2] it was 28%; in experiment [3], 2%.

Turning to `CO[C@]12CC[C@@]3(C[C@]1(C)[C@H](O)c1ccc(C)cc1)[C@H]1Cc4ccc(O)c5c4[C@@]3(CCN1CC1CC1)[C@H]2O5`, the %max is -5% in experiment [2] and 4% in experiment [3]. Further, in experiment [4], the Ke turned out to be 0.1 nM.

For `CO[C@]12CC[C@@]3(C[C@]1(C)[C@H](O)c1ccc(Cl)s1)[C@H]1Cc4ccc(O)c5c4[C@@]3(CCN1CC1CC1)[C@H]2O5`, the values for the %max in experiment [1], in experiment [2] and in experiment [3] were 61%, 10% and 16%, respectively.

In the case of `COc1ccc([C@@H](O)[C@@]2(C)C[C@@]34CC[C@]2(OC)[C@@H]2Oc5c(O)ccc6c5[C@@]23CCN(CC2CC2)[C@@H]4C6)cc1`, the %max in experiment [1] is 15%; in experiment [2] it was 2%; in experiment [3], 3%.

For `CO[C@]12CC[C@@]3(C[C@]1(C)[C@H](O)c1ccccc1)[C@H]1Cc4ccc(O)c5c4[C@@]3(CCN1CC1CC1)[C@H]2O5`, the results for the %max in experiment [5], in experiment [2] and in experiment [3] were 0%, -2% and 56%, respectively. In experiment [4], the Ke turned out to be 0.09 nM.

With `CO[C@]12CC[C@@]3(C[C@]1(C)[C@H](O)c1ccccc1C)[C@H]1Cc4ccc(O)c5c4[C@@]3(CCN1CC1CC1)[C@H]2O5`, the %max is -4% in experiment [2] and 15% in experiment [3]. Besides, in experiment [4], the Ke was 0.13 nM.

`CO[C@]12C=C[C@@]3(C[C@]1(C)[C@H](O)c1ccccc1)[C@H]1Cc4ccc(O)c5c4[C@@]3(CCN1CC1CC1)[C@H]2O5`: the %max in experiment [1] came out at 4%; in experiment [5], 7%; in experiment [2], 3%; in experiment [3] it was 56%.

Regarding `CO[C@]12C=C[C@@]3(C[C@]1(C)[C@@H](O)c1cccc(C)c1)[C@H]1Cc4ccc(O)c5c4[C@@]3(CCN1CC1CC1)[C@H]2O5`, the %max in experiment [2] was 92%; in experiment [3] it was 11%.

For `CO[C@]12CC[C@@]3(C[C@@H]1[C@](C)(O)c1ccccc1)[C@H]1Cc4ccc(O)c5c4[C@@]3(CCN1CC1CC1)[C@H]2O5`, the %max in experiment [1] was 6%; in experiment [2], 19%.

Regarding `CO[C@]12CC[C@@]3(C[C@]1(C)[C@H](O)c1cccc(F)c1)[C@H]1Cc4ccc(O)c5c4[C@@]3(CCN1CC1CC1)[C@H]2O5`, the %max in experiment [1] turned out to be 2%; in experiment [2], 15%; in experiment [3], 31%.

Regarding `CO[C@]12C=C[C@@]3(C[C@]1(C)[C@H](O)c1ccccc1C)[C@H]1Cc4ccc(O)c5c4[C@@]3(CCN1CC1CC1)[C@H]2O5`, the results for the %max in experiment [1], in experiment [2] and in experiment [3] were 12%, -4% and 17%, respectively.

With `CO[C@]12CC[C@@]3(C[C@]1(C)[C@H](O)c1cccs1)[C@H]1Cc4ccc(O)c5c4[C@@]3(CCN1CC1CC1)[C@H]2O5`, the %max was determined as 20% in experiment [2] and 6% in experiment [3].

In the case of `CO[C@]12CC[C@@]3(C[C@]1(C)[C@H](O)c1sccc1C)[C@H]1Cc4ccc(O)c5c4[C@@]3(CCN1CC1CC1)[C@H]2O5`, the %max in experiment [1] worked out at 31%; in experiment [2] it was 26%; in experiment [3], 15%.

In the case of `CO[C@]12C=C[C@@]3(C[C@]1(C)[C@H](O)c1cccc(C)c1)[C@H]1Cc4ccc(O)c5c4[C@@]3(CCN1CC1CC1)[C@H]2O5`, the %max worked out at 15% in experiment [5], 6% in experiment [2] and 54% in experiment [3].

For the compound `CO[C@]12C=C[C@@]3(C[C@]1(C)[C@@H](O)c1ccc(C)cc1)[C@H]1Cc4ccc(O)c5c4[C@@]3(CCN1CC1CC1)[C@H]2O5`, the values for the %max in experiment [1], in experiment [2] and in experiment [3] were 49%, 8% and 4%, respectively.

As for `CO[C@]12CC[C@@]3(C[C@]1(C)[C@H](O)c1cccc(C)c1)[C@H]1Cc4ccc(O)c5c4[C@@]3(CCN1CC1CC1)[C@H]2O5`, the figures for the %max in experiment [1] and in experiment [3] were 7% and 61%, respectively. The Ke in experiment [4] amounted to 0.12 nM.

On to `CO[C@]12C=C[C@@]3(C[C@]1(C)[C@@H](O)c1ccc(F)cc1)[C@H]1Cc4ccc(O)c5c4[C@@]3(CCN1CC1CC1)[C@H]2O5`, for which the %max in experiment [1] came to 55%; in experiment [2], 45%; in experiment [3], 7%.

As for `CO[C@]12CC[C@@]3(C[C@]1(C)[C@H](O)c1ccoc1)[C@H]1Cc4ccc(O)c5c4[C@@]3(CCN1CC1CC1)[C@H]2O5`, the %max in experiment [1] came to 1%; in experiment [2], 2%; in experiment [3] it was 29%.

Take `CO[C@]12C=C[C@@]3(C[C@]1(C)[C@@H](O)c1ccccc1C)[C@H]1Cc4ccc(O)c5c4[C@@]3(CCN1CC1CC1)[C@H]2O5`: the %max in experiment [1] worked out at 48%; in experiment [2] it was 72%; in experiment [3], 12%.

In the case of `CO[C@]12CC[C@@]3(C[C@]1(C)[C@H](O)c1cccc(Cl)c1)[C@H]1Cc4ccc(O)c5c4[C@@]3(CCN1CC1CC1)[C@H]2O5`, the %max in experiment [1] was found to be 7%; in experiment [2], 7%; in experiment [3] it was 42%.

For `CO[C@]12C=C[C@@]3(C[C@]1(C)[C@H](O)c1ccc(F)cc1)[C@H]1Cc4ccc(O)c5c4[C@@]3(CCN1CC1CC1)[C@H]2O5`, the %max in experiment [2] came out at 9%; in experiment [3], 51%.

Turning to `CO[C@]12CC[C@@]3(C[C@@H]1[C@](C)(O)c1cccc(Cl)c1)[C@H]1Cc4ccc(O)c5c4[C@@]3(CCN1CC1CC1)[C@H]2O5`, the %max in experiment [2] was 26%.

Regarding `CO[C@]12C=C[C@@]3(C[C@]1(C)[C@H](O)c1ccc(C)cc1)[C@H]1Cc4ccc(O)c5c4[C@@]3(CCN1CC1CC1)[C@H]2O5`, the figures for the %max in experiment [1], in experiment [2] and in experiment [3] were 35%, -6% and 14%, respectively.

On to `CCCSc1ccc([C@@H](O)[C@@]2(C)C[C@@]34C=C[C@]2(OC)[C@@H]2Oc5c(O)ccc6c5[C@@]23CCN(CC2CC2)[C@@H]4C6)cc1`, for which the %max in experiment [2] amounted to 4%; in experiment [3], 20%.

As for `CO[C@]12CC[C@@]3(C[C@]1(C)[C@@H](O)c1ccccc1)[C@H]1Cc4ccc(O)c5c4[C@@]3(CCN1CC1CC1)[C@H]2O5`, the figures for the %max in experiment [1], in experiment [2] and in experiment [3] were 33%, 97% and 10%, respectively.

With `CO[C@]12C=C[C@@]3(C[C@]1(C)[C@@H](O)c1ccccc1)[C@H]1Cc4ccc(O)c5c4[C@@]3(CCN1CC1CC1)[C@H]2O5`, the %max in experiment [2] amounted to 62%; in experiment [3], 5%.

In the case of `CO[C@]12CC[C@@]3(C[C@]1(C)[C@H](O)c1ccc(F)cc1)[C@H]1Cc4ccc(O)c5c4[C@@]3(CCN1CC1CC1)[C@H]2O5`, the %max in experiment [5] was determined as 6%. For the same compound, the Ke in experiment [4] amounted to 0.1 nM.
